Measured affinities in a library of Ab-14 light chain variants

Values reported by Li et al. 2023, doi:10.1038/s41467-023-39022-2 (FLAb copy).

The target is the same throughout: PDVDLGDISGINAS, from the HR2 region of SARS-CoV-2 spike.

Parent: Ab-14, a human scFv built as VH, a 15-residue (Gly4Ser)3 linker, VL. Only the CDRs of the light chain vary.
VH: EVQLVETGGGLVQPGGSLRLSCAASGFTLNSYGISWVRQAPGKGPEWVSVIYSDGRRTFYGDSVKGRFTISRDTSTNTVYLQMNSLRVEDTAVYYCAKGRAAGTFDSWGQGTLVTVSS
VL: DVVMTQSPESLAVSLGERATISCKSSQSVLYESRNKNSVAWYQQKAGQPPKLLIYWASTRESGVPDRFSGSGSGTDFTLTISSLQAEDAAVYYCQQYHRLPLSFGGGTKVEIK

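The starting antibody came from a phage panning campaign against this peptide. The variants were designed computationally from a first round of random CDR variants and then made and measured. Group labels follow the data file (Ctrl: baseline library sampled from a position-specific scoring matrix, with some repeated check sequences; GP: Gaussian process model; Gen: genetic algorithm; a sequence that several methods proposed may carry one label only). Affinity was read by AlphaSeq, a pooled yeast mating assay with surface-displayed partners. Mating (16 h, 30 °C) was followed by selection of diploids and sequencing of their barcodes. Scores were corrected for input abundance and mapped to Kd with protein pairs of known affinity run in the same pool. The assay was run in six technical replicates.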

Each variant is given by its three light chain CDRs, as the data file delimits them; those of the parent are KSSQSVLYESRNKNSVA, WASTRES, QQYHRLPLS. Affinities are written as log10 Kd with Kd in nM; a lower number is a better binder. Replicates are averaged; those with no signal do not enter the mean. Where no diploid with the target was found in that replicate, the entry reads "nd": below detection, most likely a poor binder, though not proof of it. Of ten entries with the parent sequence, four were seen in most replicates (averages 0.34 to 2.37), three in one and three in none, so single entries are noisy.

| # | CDR-L1 | CDR-L2 | CDR-L3 | group | log10 Kd (nM) by replicate | log10 Kd (nM), mean | control signals |
|---|---|---|---|---|---|---|---|
| 1 | KASQSDLDESRNKNSVA | WSSTRES | QQYHRLPLS | Ctrl | 0.38 / 1.16 / nd / 1.27 / 0.32 / 1.31 | 0.89 | 1/18 (3.11) |
| 2 | KSDKSMLYESGNKNSVA | GASTRHS | QQYHRLPLS | Ctrl | 0.57 / 0.39 / 0.19 / 0.25 / 0.33 / 0.46 | 0.37 | 0/18 |
| 3 | KSSQDVLRESRNKNSVA | WGSTRES | MQYVRLPND | Ctrl | 1.27 / 1.18 / nd / 3.80 / 1.60 / nd | 1.96 | 0/18 |
| 4 | KSSQSYLYESFNKNSVA | GASTRNS | QQYHRLPLS | Ctrl | nd / 1.27 / 1.75 / nd / nd / nd | 1.51 | 0/18 |
| 5 | KSSQSVLYESSNKNSVA | WASTRES | QQHHRLPLS | Ctrl | 2.22 / 2.14 / 1.48 / 1.58 / 1.86 / 1.99 | 1.88 | 3/18 (2.70) |
| 6 | KLSMSVLDESRNKNSVA | WASTRES | QQYHRLPLS | Ctrl | 0.99 / 0.91 / 0.71 / 0.79 / 0.76 / 0.90 | 0.84 | 2/18 (2.73) |
| 7 | KSSQSQLYEERNKNSVA | WASTRES | QQYHRLPLS | Ctrl | 1.13 / 0.72 / 0.69 / 0.72 / 0.50 / 0.72 | 0.75 | 0/18 |
| 8 | KSSQSVLTSDRNKNSVA | WASTRES | QQYFRLPLS | Ctrl | 1.67 / 1.06 / 0.94 / 1.12 / 1.57 / 1.58 | 1.32 | 0/18 |
| 9 | KSDQSVLYESGNKNSVA | MASTRES | QQYHRLPLS | Ctrl | 0.42 / 1.72 / 0.79 / 1.14 / 1.22 / 0.84 | 1.02 | 1/18 (2.11) |
| 10 | KSSQSVLYESRNKNSVA | WASERES | QQYHRLPFS | Ctrl | 1.40 / 1.36 / 1.04 / 1.88 / 1.61 / 0.97 | 1.38 | 0/18 |
| 11 | KSSQSMLYEERNKNSVA | SASTRES | QQYSRLPLS | Ctrl | 0.44 / 0.41 / 0.92 / 1.57 / 0.76 / 0.80 | 0.82 | 1/18 (2.24) |
| 12 | KQRQSVLYESRNKNSVA | WASTRES | QQYHRLPLS | Ctrl | nd / nd / nd / nd / nd / nd | nd | 0/18 |
| 13 | KSSQSVLYESRYKNSVA | QASTRES | QQYHRLPLS | Ctrl | 0.89 / 0.35 / 0.23 / 0.56 / 0.45 / 0.35 | 0.47 | 0/18 |
| 14 | KSSQSVLYESRNKNSVA | AASTRES | QQYSRLPLS | Ctrl | nd / nd / nd / nd / nd / nd | nd | 0/18 |
| 15 | KSSQSMLNESRNENSVA | WASTRLS | QQYHRLPLS | Ctrl | nd / nd / 1.52 / nd / 1.18 / nd | 1.35 | 0/18 |
| 16 | KISQSNLYESRNKNSVA | WASTRES | QQYHRLPLS | Ctrl | 1.40 / 1.15 / 1.18 / 1.07 / 1.32 / 1.23 | 1.22 | 0/18 |
| 17 | KSTQSNLYESRNKNSVA | QASTRES | QQYHRLPLS | Ctrl | nd / nd / nd / nd / nd / nd | nd | 0/18 |
| 18 | KSSQSVLYESRNKNSIA | SASTRES | QQYHRLPLG | Ctrl | 0.85 / 0.64 / 1.03 / 0.45 / 0.55 / 0.66 | 0.70 | 1/18 (2.34) |
| 19 | KSSQSVLYESQNKNSVA | QAHTRES | QQYHRLPLS | Ctrl | nd / nd / nd / 2.20 / nd / 2.56 | 2.38 | 0/18 |
| 20 | KSSQSVLYISRDGNSVA | WASTREH | QQPHRLPLC | Ctrl | nd / nd / nd / nd / nd / nd | nd | 1/18 (1.46) |
| 21 | KSSQSVEYESLNKNSVA | RASIRES | QQYHRLPLS | Ctrl | 1.22 / 0.82 / 1.01 / 0.93 / 0.92 / 1.17 | 1.01 | 0/18 |
| 22 | KSSQSVLNESNNKNSVA | WASCRES | QQYHRLPLS | Ctrl | 1.53 / 1.83 / 1.15 / 1.63 / 1.98 / 1.64 | 1.63 | 1/18 (3.81) |
| 23 | KSGQSVLYESRNKNNVA | WASTHES | QQYHRLPLS | Ctrl | nd / 1.53 / nd / nd / nd / nd | 1.53 | 1/18 (0.27) |
| 24 | KSSQSGLYESRNKNSVA | WASTREQ | QSYHRLPLS | Ctrl | 2.16 / 2.78 / nd / nd / 2.58 / nd | 2.51 | 1/18 (2.81) |
| 25 | KSSQSVAYESMNKNSVA | NASTRES | QQYHRLPLS | Ctrl | 0.48 / 0.75 / 0.37 / 0.38 / 0.34 / 0.41 | 0.45 | 2/18 (4.05) |
| 26 | KFSQSVLYETVNANSVA | HASTRES | CQYHRLPLS | Ctrl | nd / 1.40 / 1.83 / nd / nd / nd | 1.62 | 0/18 |
| 27 | KDSQSVLYDSRNKNSVA | WASTRES | QQYSRLPLS | Ctrl | 0.69 / 0.99 / 0.72 / 1.13 / 1.18 / 1.19 | 0.98 | 0/18 |
| 28 | KYSQSVLYESRNKNSVA | EASTRES | QQYHRLPLS | Ctrl+GP_Gen | 0.66 / 0.27 / 0.08 / -0.05 / 0.00 / 0.55; 0.25 / 0.35 / 0.24 / 0.14 / 0.39 / 0.57 | 0.29 | 1/36 (2.83) |
| 29 | KSSQSVSYSSRNKWSVA | QASTRES | QQYHRLPLC | Ctrl | nd / nd / 2.02 / nd / nd / 2.61 | 2.31 | 0/18 |
| 30 | KSSQSLLYESGNKNSVA | WASTRES | QQYHRLPLS | Ctrl | 0.42 / 0.79 / 0.75 / 0.87 / 0.41 / 0.91 | 0.69 | 0/18 |
| 31 | KSSQSDLYESRNKNSIA | AASKRES | QQYHRLPLS | Ctrl | 0.45 / 0.27 / 0.47 / 0.38 / 0.27 / 0.13 | 0.33 | 0/18 |
| 32 | KSSQSVLWEWRNKNSVA | WASTRWS | QQYAILPLK | Ctrl | nd / nd / nd / nd / nd / nd | nd | 0/18 |
| 33 | KSKQSVLYESRDKNSVA | WASTRES | QQYHRLPLS | Ctrl | 1.02 / 0.74 / 1.26 / 0.70 / 0.68 / 1.03 | 0.90 | 1/18 (1.96) |
| 34 | KYSQSVFYEGRNKNSVA | WASTRES | NQYHRKPLS | Ctrl | nd / nd / nd / nd / nd / nd | nd | 0/18 |
| 35 | KSSQSGLYESRDKNSVA | WASTRES | QQYHRLPLS | Ctrl | nd / nd / 4.13 / nd / 1.79 / 1.97 | 2.63 | 0/18 |
| 36 | KSSQSVGYESENNNSCA | WASTRES | QQYHRDPLS | Ctrl | nd / nd / nd / nd / nd / nd | nd | 0/18 |
| 37 | KSSQSVLYESDNNNSVA | QASCRES | QQYHRLPAS | Ctrl | nd / 2.88 / nd / nd / nd / nd | 2.88 | 0/18 |
| 38 | KSSQSVEPESRNKNSVA | WASTRES | QQYHRLPLS | Ctrl | nd / nd / nd / nd / nd / nd | nd | 0/18 |
| 39 | KSSQSDLYESRNKNSVA | HASTRES | QQYHRLPLS | Ctrl | 0.19 / 0.13 / -0.11 / 0.11 / 0.09 / 0.10 | 0.08 | 0/18 |
| 40 | KFSQSVLYEMRAKNSIA | WASTRES | QQYHRLPLS | Ctrl | nd / 1.69 / 2.50 / nd / 1.45 / 1.14 | 1.70 | 0/18 |
| 41 | KSSQSVLYEADNKNSVA | WASTRES | QQYHRLPLS | Ctrl | 1.14 / 1.48 / 2.09 / 1.39 / 1.08 / 1.54 | 1.45 | 1/18 (3.43) |

Top 4 of the variants detected in all replicates, tightest first:

| CDR-L1 | CDR-L2 | CDR-L3 | group | log10 Kd (nM) by replicate | log10 Kd (nM), mean | control signals |
|---|---|---|---|---|---|---|
| KSSQSDLYESRNKNSVA | HASTRES | QQYHRLPLS | Ctrl | 0.19 / 0.13 / -0.11 / 0.11 / 0.09 / 0.10 | 0.08 | 0/18 |
| KYSQSVLYESRNKNSVA | EASTRES | QQYHRLPLS | Ctrl+GP_Gen | 0.66 / 0.27 / 0.08 / -0.05 / 0.00 / 0.55; 0.25 / 0.35 / 0.24 / 0.14 / 0.39 / 0.57 | 0.29 | 1/36 (2.83) |
| KSSQSDLYESRNKNSIA | AASKRES | QQYHRLPLS | Ctrl | 0.45 / 0.27 / 0.47 / 0.38 / 0.27 / 0.13 | 0.33 | 0/18 |
| KSDKSMLYESGNKNSVA | GASTRHS | QQYHRLPLS | Ctrl | 0.57 / 0.39 / 0.19 / 0.25 / 0.33 / 0.46 | 0.37 | 0/18 |

A sequence that the file lists under several names has all its replicates listed entry by entry, parted by semicolons. The authors' rule: three or more of the six replicates give a measured affinity, fewer mean a poor binder. A sequence measured in both rounds can read differently, since the two assays cover different ranges. As a blank, each scFv also met three strains without target: over all light chain designs, 4% of these pairings were detected, typically at 2.64 and seldom below 1.59. The control count says in how many pairings with the empty strains this scFv gave a signal, with their mean in brackets.